From PubChem BioAssay AID619 (University of Pittsburgh Molecular Library Screening Center, 2007)
Only a part is listed here, and it is no random draw. Active and inactive are the calls of the source.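 Rule for the calls: active = inhibition of 50% or more in the single-concentration screen; inactive = inhibition below 50%.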

The chains behind the UniProt entries cited, without tags or fusion partners.
UniProt P53350, whole entry, looked up: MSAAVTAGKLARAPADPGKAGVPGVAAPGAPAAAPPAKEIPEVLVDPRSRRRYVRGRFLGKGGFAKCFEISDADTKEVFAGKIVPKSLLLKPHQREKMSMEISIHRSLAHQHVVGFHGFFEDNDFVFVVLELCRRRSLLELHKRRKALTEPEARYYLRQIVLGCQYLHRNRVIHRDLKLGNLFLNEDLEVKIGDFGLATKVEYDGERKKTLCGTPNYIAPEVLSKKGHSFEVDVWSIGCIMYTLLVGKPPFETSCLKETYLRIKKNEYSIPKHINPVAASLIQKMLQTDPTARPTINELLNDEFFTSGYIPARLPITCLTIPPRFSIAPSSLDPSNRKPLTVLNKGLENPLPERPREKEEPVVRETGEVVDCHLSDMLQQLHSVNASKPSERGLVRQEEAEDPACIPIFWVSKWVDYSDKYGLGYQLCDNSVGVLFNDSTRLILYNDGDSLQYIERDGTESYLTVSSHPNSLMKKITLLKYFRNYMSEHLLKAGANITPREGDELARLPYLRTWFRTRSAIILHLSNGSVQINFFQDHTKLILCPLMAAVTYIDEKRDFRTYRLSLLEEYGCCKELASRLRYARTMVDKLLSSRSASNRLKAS

molecular target: Serine/threonine-protein kinase PLK1 (Homo sapiens) (UniProt P53350); test: human PLK1 kinase inhibitors, primary screen, biochemical, TR-FRET (AID 619); conditions: recombinant PLK1 kinase, TR-FRET peptide phosphorylation; at 10 µM; active compounds read high;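 note: 0% = DMSO max control and 100% = H-89 dihydrochloride min control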

**Q.** How did the inhibition turn out when O=C(OC1CN2CCC1CC2)c1cccc(Cl)c1 (stereo not drawn) was run?
**A.** Its inhibition is inactive: -1.54%.

**Q.** For c1nnnn1CCn1cnnn1, which inhibition is on record?
**A.** The inhibition was inactive: -8.3%.

**Q.** With O=P(Nc1nccs1)(c1ccccc1)c1ccccc1 as the molecule, how does the inhibition read?
**A.** Its inhibition is inactive: 7.52%.

**Q.** O=P1(Nc2nc3ccc(Cl)cc3s2)COc2ccccc2O1 (stereo not drawn) was tested. Which inhibition did it give?
**A.** Its inhibition is inactive: -7.38%.

**Q.** With COC(=O)c1cc2c(s1)N=C(c1ccccc1)N(C)P2(=O)N1CCOCC1 (stereo not drawn) as the molecule, how does the inhibition read?
**A.** The inhibition was inactive: -6.93%.

**Q.** How did the inhibition turn out when CCC(=O)N1C2C3N(C(=O)CC)C1C1N(C(=O)CC)C(C(N1C(=O)CC)N3C(=O)CC)N2C(=O)CC was run?
**A.** The inhibition was inactive: -3.6%.

**Q.** CCOC(=O)NC(Sc1ccccc1)C(Cl)(Cl)Cl (stereo not drawn) was tested. Which inhibition did it give?
**A.** Its inhibition is inactive: -11.3%.

**Q.** Which inhibition does the source give for CCOP(=O)(Nc1ccccc1)OCC here?
**A.** Its inhibition is inactive: -16.4%.

**Q.** CC(C)CC(=O)NC(Sc1ccc(Cl)cc1)C(Cl)(Cl)Cl (stereo not drawn) was tested. Which inhibition did it give?
**A.** Its inhibition is inactive: -9.28%.

**Q.** How did the inhibition turn out when Cc1c2non([O-])c-2c(C)[n+](=O)[n+]1[O-] was run?
**A.** Its inhibition is inactive: -6.35%.

**Q.** With Oc1ccccc1CNc1ccccn1 as the molecule, how does the inhibition read?
**A.** Its inhibition is inactive: -6.93%.

**Q.** Which inhibition does the source give for CN1CCCC(OC(=O)C(c2ccccc2)c2ccccc2)C1 (stereo not drawn) here?
**A.** Its inhibition is inactive: -5.77%.

**Q.** With CC1CCN(C(=O)Oc2c(Cl)cc(Cl)c3cccnc23)CC1 as the molecule, how does the inhibition read?
**A.** The inhibition was inactive: -1.49%.

**Q.** For O=[N+]([O-])c1cccc2n[nH]nc12, which inhibition is on record?
**A.** The inhibition was inactive: -9.5%.

**Q.** CC(=O)N1C2C3N(C(C)=O)C1C1N(C(C)=O)C(C(N1C(C)=O)N3C(C)=O)N2C(C)=O was tested. Which inhibition did it give?
**A.** The inhibition was inactive: -9.23%.

**Q.** CCc1nc2c(n1)c1c(non1O)c1c2no[n+]1[O-] was tested. Which inhibition did it give?
**A.** The inhibition was inactive: 12.2%.

**Q.** How did the inhibition turn out when CCC(C)N(CC(C)C)C(=S)SC(NC(C)=O)C(Cl)(Cl)Cl (stereo not drawn) was run?
**A.** Its inhibition is inactive: -10%.

**Q.** How did the inhibition turn out when O=C(COc1ccccc1)OC1CN2CCC1CC2 (stereo not drawn) was run?
**A.** The inhibition was inactive: -6.71%.

**Q.** For COP1(=S)c2c(C)nn(CCC#N)c2N=C(c2ccc(F)cc2)N1C (stereo not drawn), which inhibition is on record?
**A.** Its inhibition is inactive: -9.23%.

**Q.** O=C(OC1CN2CCC1CC2)C12CC3CC(CC(C3)C1)C2 (stereo not drawn) was tested. Which inhibition did it give?
**A.** The inhibition was inactive: -3.78%.

**Q.** With CCN(CC)C(=S)SC(NC=O)C(Cl)(Cl)Cl (stereo not drawn) as the molecule, how does the inhibition read?
**A.** The inhibition was inactive: -2.58%.

**Q.** With ClCCSc1nnc(-c2cccnc2)o1 as the molecule, how does the inhibition read?
**A.** Its inhibition is inactive: -7.85%.

**Q.** Which inhibition does the source give for O=[N+]([O-])c1ccc2c(c1)nnn2O here?
**A.** Its inhibition is inactive: -9.67%.

**Q.** Which inhibition does the source give for CCOP1(=S)c2c(C)nn(CCC#N)c2N=C(c2ccc(F)cc2)N1C (stereo not drawn) here?
**A.** Its inhibition is inactive: -8.06%.

**Q.** CCOP1(=S)c2c(C)nn(CCC#N)c2N=C(c2ccccc2F)N1C (stereo not drawn) was tested. Which inhibition did it give?
**A.** Its inhibition is inactive: -9.8%.

**Q.** Which inhibition does the source give for Cc1cccc(OCC(=O)OC2CN3CCC2CC3)c1 (stereo not drawn) here?
**A.** The inhibition was inactive: -7.77%.

**Q.** For CC1(CBr)Cn2c(nc3ccccc3c2=O)S1 (stereo not drawn), which inhibition is on record?
**A.** The inhibition was inactive: -14.5%.

**Q.** Which inhibition does the source give for Clc1n[nH]nc1-c1nn[nH][15n]1 here?
**A.** Its inhibition is inactive: -6.1%.

**Q.** O=P1(Nc2ccccn2)COc2ccccc2OC1 was tested. Which inhibition did it give?
**A.** The inhibition was inactive: -15.2%.

**Q.** Which inhibition does the source give for O=P1(Nc2ccc(Br)cn2)COc2ccccc2OC1 here?
**A.** The inhibition was inactive: 13.5%.

**Q.** For Cc1ccc(OCC(=O)OC2CN3CCC2CC3)cc1 (stereo not drawn), which inhibition is on record?
**A.** Its inhibition is inactive: -10.7%.

**Q.** With O=P1(Nc2ncccn2)COc2ccccc2OC1 as the molecule, how does the inhibition read?
**A.** The inhibition was inactive: -17.7%.

**Q.** Which inhibition does the source give for Cc1nn(-c2ccccc2)c2c1P(=O)(N1CCOCC1)N(C)C(c1ccccc1)=N2 (stereo not drawn) here?
**A.** Its inhibition is inactive: -12.5%.
